Molecules are shown by their SMILES.

Protein sequences, listed by entry. Tags and fused reporters are not part of them. Residues count along the entry.
UniProt Q9UNA0, 262-622 limits assumed: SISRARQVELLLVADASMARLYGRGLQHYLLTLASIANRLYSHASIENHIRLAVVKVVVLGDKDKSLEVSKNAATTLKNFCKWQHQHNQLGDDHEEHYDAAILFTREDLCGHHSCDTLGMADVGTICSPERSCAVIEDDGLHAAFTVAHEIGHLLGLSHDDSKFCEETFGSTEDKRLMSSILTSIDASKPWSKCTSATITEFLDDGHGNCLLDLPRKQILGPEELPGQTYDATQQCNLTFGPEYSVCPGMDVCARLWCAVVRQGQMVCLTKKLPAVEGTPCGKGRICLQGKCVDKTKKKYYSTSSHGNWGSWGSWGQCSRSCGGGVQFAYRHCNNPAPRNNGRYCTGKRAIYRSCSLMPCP
UniProt O75173, 213-685 limits assumed: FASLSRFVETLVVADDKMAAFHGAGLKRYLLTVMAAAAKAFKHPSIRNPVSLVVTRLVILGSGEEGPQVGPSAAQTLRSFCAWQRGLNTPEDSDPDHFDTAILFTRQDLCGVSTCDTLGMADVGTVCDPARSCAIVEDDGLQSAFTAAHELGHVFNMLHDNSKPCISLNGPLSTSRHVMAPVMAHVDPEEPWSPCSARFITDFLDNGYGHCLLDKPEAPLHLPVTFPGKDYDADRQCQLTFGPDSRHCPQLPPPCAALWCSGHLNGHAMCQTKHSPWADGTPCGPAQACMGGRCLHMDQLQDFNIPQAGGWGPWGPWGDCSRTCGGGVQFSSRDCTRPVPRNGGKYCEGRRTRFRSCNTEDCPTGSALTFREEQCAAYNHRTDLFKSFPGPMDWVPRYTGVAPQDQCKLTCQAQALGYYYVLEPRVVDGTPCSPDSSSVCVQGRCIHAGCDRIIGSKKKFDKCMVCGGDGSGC

In experiment [1] the target is T1, ADAMTS-5 recombinant protein (Homo sapiens (Human), UniProt Q9UNA0). Put plainly: In vitro ELISA of ADAMTS-5 activity (Aggrecan-IGD enzymatic assay). As to conditions: read-out: ADAMTS-5 (IC50); aggrecan-IGD substrate, ARGSVIL-peptide ELISA, 37° C. 45 minutes. The protocol:
In this assay, the enzymatic activity of recombinant ADAMTS-5 protein (catalog #2198-AD, R&D Systems) was assayed with a protein substrate, the aggrecan IGD protein. The aggrecan IGD protein is a polypeptide connecting human aggrecan globular domains 1 and 2 (T331-G458) expressed in E. Coli with a C-terminal His-tag (catalog #30411000, BIOTEZ). The enzymatic product ARGSVIL-peptide was detected using an ELISA kit from BioTEZ (catalog #30510111).
An assay buffer containing 50 mM HEPES pH 7.5, 100 mM NaCl, 5 mM CaCl2), 0.1% CHAPS and 5% Glycerol was prepared. Recombinant ADAMTS-5 protein was diluted to 0.3 nM in the assay buffer. Ten μl of […] and 10 μl of compound solution was transferred to each well of a 96-well plate and incubated at room temperature for 15 minutes. Substrate aggrecan-IGD was diluted to 100 nM with the assay buffer and 20 μl was added to each well. The plate was incubated at 37° C. for 45 minutes. After incubation, the newly generated epitope ARGSVIL-peptides were measured using the Aggrecanase Activity ELISA Assay Kit following the manufacturer's instructions. Then, 100 μl of stop solution was added and the absorbance of each well was read at 450 nm, using […] as reference on a TECAN plate reader.
A standard curve of the ELISA assay was generated in GraphPad Prism using Sigmoidal 4PL function and the corresponding peptide concentrations were calculated based on the standard curve. The IC50 values were calculated using function “log (inhibitor) vs. response—Variable slope (four parameters)”. (See Table 2).
In general terms: ELISA stands for enzyme-linked immunosorbent assay.

Experiment [2] concerns the target ADAMTS-4 recombinant protein (Homo sapiens (Human), UniProt O75173). Put plainly: In vitro fluorescence (FRET-peptide) enzymatic assay of ADAMTS-4 activity. As to conditions: read-out: ADAMTS-4 (IC50); FRET peptide substrate 15 μM, 10 nM enzyme, 37° C. 3 hours. The protocol:
(§1) A FRET (fluorescence resonance energy transfer) peptide was cleaved by recombinant ADAMTS-4 or ADAMTS-5 proteins into two separate fragments resulting in an increase of fluorescence signal which was quantified. The peptide was 5-FAM-TEGEARGSVILLK(5-TAMRA)K-NH2, customized from ANASPEC. ADAMTS-4 recombinant protein (catalog #4307-AD) and ADAMTS-5 recombinant protein (catalog #2198-AD) were purchased from R&D Systems.
(§2) An assay buffer containing 50 mM HEPES pH 7.5, 100 mM NaCl, 5 mM CaCl2, 0.1% CHAPS and 5% Glycerol was prepared. A volume of 2.5 μl of compound in the assay buffer was dispensed to a 384-well plate, and 2.5 μl of ADAMTS-4 or ADAMTS-5 protein (final concentration in the reaction was 10 nM) was added. The compounds and proteins were pre-incubated at room temperature for 15 minutes. Then, 5 μl of substrate was added to each well. The final substrate concentrations for ADAMTS-4 and ADAMTS-5 were 15 μM and 8 μM, respectively. The fluorescence signal in each well was determined, after incubation at 37° C. for 3 hours, on a TECAN plate reader (Excitation, 490 nm; Emission, 520 nm).
(§3) The data was inputted into GraphPad Prism, and the IC50 values were calculated using function “log (inhibitor) vs. response—Variable slope (four parameters)”. (See Table 1)

The test system of experiment [3] is mouse femoral head cartilage. Put plainly: Mouse explant assay (IL-1α induced GAG release). To be noted: inhibition of GAG release, IL-1α 1 ng/ml, 72 hours; for Inhibition % at 2 μM: compound 2 μM; for Inhibition % at 20 μM: compound 20 μM. Here is the method: In this assay, fresh mouse femoral head cartilage was treated with IL-1α protein (Sigma-Aldrich, catalog #12778) in culture media, which induces the cartilage catabolism. Then, the GAGs attached to the cleaved aggrecan fragments (released in the media) and the GAGs attached to the intact aggrecan were measured by dimethylmethylene blue dye in the Glycosaminoglycans Assay Kit (Chondrex, catalog #6022).
Femoral head cartilage samples were isolated from mice (25 days old, male, C57BL/6, from Charles River Lab) and put into 2.0 ml tubes filled-up with media (DMEM, 10% FBS, 4 mM Glutamine, penicillin-streptomycin, 20 mM HEPES). Two hundred μl of media without FBS was added to each well of a 48-well plate, and one piece of cartilage was transferred to a well in the plate. Then the media was aspirated, and compounds and IL-1α protein were added to the plate in a total volume of 400 μl of fresh media without FBS. The final concentration of IL-1α was 1 ng/ml. The plate was incubated at 37° C. for 72 hours in a humidified incubator with 5% CO2 supply.
The supernatant was transferred to a 1.5 ml tube and kept at −20° C. Each cartilage sample was transferred to another 1.5 ml tube containing 400 μl of freshly made papain solution. The papain solution contained 125 μg/ml papain (Sigma-Aldrich, catalog #P3125), 0.1 M sodium acetate (Sigma-Aldrich, catalog #S7899), pH 5.5 and 5 mM EDTA and 5 mM L-cysteine-HCl (Sigma-Aldrich, catalog #C7880). The cartilage samples were kept rocking in a 60° C. water bath for 24 hours. The lysates were vortexed for 10 seconds and spinned at 10,000 rpm for 2 minutes.
Both the supernatant and the lysate samples were diluted with PBS and mixed with 100 μl of dye from the Glycosaminoglycans Assay Kit. The optical density from each well was determined with a TECAN plate reader set to a wavelength of 525 nm.
The concentrations of GAGs in the supernatant and lysates were determined based on the standard curve with a dose range of chondroitin sulfate provided in the kit. The percentage of GAG release was calculated as the following
The test compound effect was expressed as the percent of inhibition using the following formula: […]

Experiment [4] concerns the target T1, ADAMTS-5 recombinant protein. Put plainly: In vitro fluorescence (FRET-peptide) enzymatic assay of ADAMTS-5 activity. To be noted: read-out: ADAMTS-5 (IC50); FRET peptide substrate 8 μM, 10 nM enzyme, 37° C. 3 hours. The protocol:
as §1, §2, §3

The IC50 is the concentration that gives 50% inhibition. On to `CC1c2cc(C(F)(F)F)c(Cl)cc2CN1C(=O)CC[C@@]1(C2CC2)NC(=O)NC1=O` (single isomer, unassigned), for which the IC50 in experiment [1] worked out at 17 nM. Moreover, in experiment [2], the half-inhibitory concentration (IC50) was 50 nM. Besides, in experiment [3], the “Inhibition % at 2 μM” value amounted to 50% and the “Inhibition % at 20 μM” value is listed as 74%.
`CC1CN(C(=O)CC[C@@]2(C3CC3)NC(=O)NC2=O)CCc2ccc(Cl)c(Cl)c21` (single isomer, unassigned) [compound with shorter retention time in 38-1 and 38-2]: the concentration for half-maximal inhibition (IC50) was determined as 52 nM in experiment [1], 120 nM in experiment [2] and 42 nM in experiment [4].
Consider `CC(C[C@]1(C2CC2)NC(=O)NC1=O)C(=O)N1Cc2ccc(C(F)(F)F)cc2C1` (single isomer, unassigned), for which the IC50 is 12 nM in experiment [2] and 9 nM in experiment [4].
`Cn1ccnc1C1(CCC(=O)N2Cc3ccc(C(F)(F)F)cc3C2)NC(=O)NC1=O` (single isomer, unassigned): in experiment [3], the “Inhibition % at 2 μM” value was 27% and the “Inhibition % at 20 μM” value amounted to 60%.
In the case of `CC(C[C@@]1(C2CC2)NC(=O)NC1=O)C(=O)N1Cc2ccc(C(F)(F)F)cc2C1` (single isomer, unassigned), the figures for the concentration for half-maximal inhibition (IC50) in experiment [1], in experiment [2] and in experiment [4] were 19 nM, 8 nM and 9 nM, respectively. Moreover, in experiment [3], the “Inhibition % at 2 μM” value amounted to 46%. In experiment [3], the “Inhibition % at 20 μM” value is recorded as 99%.
As for `CC1CN(C(=O)CC[C@@]2(C3CC3)NC(=O)NC2=O)CCc2ccc(Cl)c(Cl)c21` (single isomer, unassigned) [compound with longer retention time in 38-1 and 38-2], the IC50 was found to be 220 nM in experiment [1], 330 nM in experiment [2] and 110 nM in experiment [4].
Regarding `CCC(C[C@@]1(C2CC2)NC(=O)NC1=O)C(=O)N1Cc2ccc(C(F)(F)F)cc2C1` (single isomer, unassigned), the 50% inhibitory concentration (IC50) turned out to be 18 nM in experiment [1], 12 nM in experiment [2] and 7.1 nM in experiment [4]. Moreover, the “Inhibition % at 2 μM” value in experiment [3] was 65%. Moreover, the “Inhibition % at 20 μM” value in experiment [3] was determined as 97%.
Regarding `CC1CN(C(=O)CC[C@@]2(C3CC3)NC(=O)NC2=O)CCc2cc(Cl)c(Cl)cc21` (single isomer, unassigned) [compound with longer retention time in 37-1 and 37-2], the 50% inhibitory concentration (IC50) in experiment [2] was 52 nM; in experiment [4], 98 nM.
Turning to `CC(C[C@@]1(C2CC2)NC(=O)NC1=O)C(=O)N1Cc2cc(Cl)c(Cl)cc2C1` (mixture of isomers) [Example 34-2, (5S)-5-cyclopropyl-5-(3-(5,6-dichloroisoindolin-2-yl)-2-methyl-3-oxopropyl)imidazolidine-2,4-dione], the IC50 in experiment [1] stood at 18 nM; in experiment [2] it was 3 nM; in experiment [4] it was 7 nM. The “Inhibition % at 2 μM” value in experiment [3] was found to be 71%. Besides, the “Inhibition % at 20 μM” value in experiment [3] is 100%.
For the molecule `Cn1ccnc1C1(CCC(=O)N2Cc3cc(Cl)c(C(F)(F)F)cc3C2)NC(=O)NC1=O` (single isomer, unassigned), in experiment [3], the “Inhibition % at 2 μM” value was determined as 31% and the “Inhibition % at 20 μM” value worked out at 70%.
Turning to `CC1CN(C(=O)CC[C@@]2(C3CC3)NC(=O)NC2=O)CCc2cc(Cl)c(Cl)cc21` (single isomer, unassigned) [compound with shorter retention time in 37-1 and 37-2], the IC50 was 8 nM in experiment [2] and 12 nM in experiment [4].

The values above are taken from patent US20240299360A1, “ADAMTS INHIBITORS, PREPARATION METHODS AND MEDICINAL USES THEREOF” (Jiangsu Hengrui Pharmaceuticals Co., Ltd., priority 2020, published 2024).
